Data as given in publication PMC5655446 (PLoS ONE, 2017).

By UniProt entry, the sequences of proteins in these tests, tags left out. Residues count along the entry.
UniProt A5F5Y3, 18-334 limits assumed: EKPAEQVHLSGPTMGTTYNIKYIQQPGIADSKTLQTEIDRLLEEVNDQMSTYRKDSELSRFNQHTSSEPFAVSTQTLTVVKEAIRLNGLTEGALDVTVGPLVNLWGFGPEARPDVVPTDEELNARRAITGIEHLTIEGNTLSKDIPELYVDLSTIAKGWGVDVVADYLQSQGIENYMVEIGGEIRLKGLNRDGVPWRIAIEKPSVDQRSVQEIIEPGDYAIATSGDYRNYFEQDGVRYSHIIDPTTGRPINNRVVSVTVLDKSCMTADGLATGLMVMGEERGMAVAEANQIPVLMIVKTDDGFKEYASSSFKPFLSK

Target: V. cholerae ApbE (Vibrio cholerae, UniProt A5F5Y3)
Test: biochemical

**Q.** How did the Kd turn out when `Cc1cc2nc3c(=O)[nH]c(=O)nc-3n(C[C@H](O)[C@H](O)[C@H](O)COP(=O)(O)OP(=O)(O)OC[C@H]3O[C@@H](n4cnc5c(N)ncnc54)[C@H](O)[C@@H]3O)c2cc1C` [FAD, flavin adenine dinucleotide] was run?
**A.** 2.2 ± 1 µM
